These are literature values, as cited in paper PMC6353898, “A Rational Approach for Creating Peptides Mimicking Antibody Binding” (Scientific Reports, 2019).

The series has as its system EGFR phosphorylation. The arrangement: method as in PMID 23698748. The conditions noted are these: cited from earlier work.

Turning to “Cetuximab: antibody that binds domain III of the extracellular region of EGFR”, the EGFR phosphorylation inhibition entry was “around 50%”.
